Measurements published in article PMC10056986 (Pharmaceuticals, 2023).

Chains of the proteins cited; added tags and fusions are not shown.
UniProt P32238, whole entry: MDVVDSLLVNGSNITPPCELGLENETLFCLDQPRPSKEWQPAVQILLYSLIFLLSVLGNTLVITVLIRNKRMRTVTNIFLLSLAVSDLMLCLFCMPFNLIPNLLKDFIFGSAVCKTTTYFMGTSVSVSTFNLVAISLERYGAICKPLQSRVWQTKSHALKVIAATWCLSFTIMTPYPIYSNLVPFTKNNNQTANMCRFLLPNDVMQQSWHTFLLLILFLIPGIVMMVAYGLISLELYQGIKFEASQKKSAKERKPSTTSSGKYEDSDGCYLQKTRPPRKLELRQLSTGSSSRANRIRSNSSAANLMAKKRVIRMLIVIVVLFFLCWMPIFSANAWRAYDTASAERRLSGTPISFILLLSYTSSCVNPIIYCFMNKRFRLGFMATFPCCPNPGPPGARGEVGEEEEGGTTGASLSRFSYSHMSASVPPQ
UniProt P08588, whole entry: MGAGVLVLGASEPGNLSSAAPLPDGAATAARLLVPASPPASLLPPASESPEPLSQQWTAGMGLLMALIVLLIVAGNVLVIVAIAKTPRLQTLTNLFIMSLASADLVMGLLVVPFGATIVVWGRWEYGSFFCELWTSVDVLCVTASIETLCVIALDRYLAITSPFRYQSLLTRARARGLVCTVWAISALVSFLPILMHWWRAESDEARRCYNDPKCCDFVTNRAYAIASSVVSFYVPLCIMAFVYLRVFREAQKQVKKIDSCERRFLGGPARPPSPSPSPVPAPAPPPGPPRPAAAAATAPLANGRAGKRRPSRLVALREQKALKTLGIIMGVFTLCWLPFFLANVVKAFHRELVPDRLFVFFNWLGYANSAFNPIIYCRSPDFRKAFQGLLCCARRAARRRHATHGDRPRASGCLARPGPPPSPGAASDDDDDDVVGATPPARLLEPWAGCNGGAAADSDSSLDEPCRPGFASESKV

Experiments:
[1] = biological target: CCKa (Homo sapiens, UniProt P32238); assay: cell-based
[2] = biological target: Beta1 (Homo sapiens, UniProt P08588); assay: cell-based

| SMILES | EC50 [1] [nM] | EC50 [2] [nM] |
| --- | --- | --- |
| CSCC[C@H](NC(=O)[C@@H](N)Cc1c[nH]c2ccccc12)C(=O)N[C@@H](CC(=O)O)C(=O)N[C@@H](Cc1ccccc1)C(N)=O [CCK-4, reference compound] | 71.4 |  |
| CNC[C@H](O)c1ccc(O)c(O)c1 [(−)-Epinephrine, reference compound] |  | 3.24 |
